The assay can be described thus: Selectivity for bovine Monoamine oxidase A as ratio of Ki(MAO-B)/Ki(MAO-A).

On to `Cn1cccc1C(=O)[C@H](c1ccccc1)N1CCCC1`, for which the A-selectivity was determined as 52600.

For `Cn1cccc1C(=O)[C@@H](c1ccccc1)N1CCCC1`, the A-selectivity amounted to 200000.

`Cn1cccc1C(=O)C(c1ccccc1)N1CCCC1` (racemic): the A-selectivity was 80000.
